# Laboratory results as given in patent US20170360875A1 (priority 2014, published 2017).
# Sequences of proteins named here, by UniProt entry; tags and fusion partners are left off. Residues count along the entry.
# UniProt P00433, 31-338: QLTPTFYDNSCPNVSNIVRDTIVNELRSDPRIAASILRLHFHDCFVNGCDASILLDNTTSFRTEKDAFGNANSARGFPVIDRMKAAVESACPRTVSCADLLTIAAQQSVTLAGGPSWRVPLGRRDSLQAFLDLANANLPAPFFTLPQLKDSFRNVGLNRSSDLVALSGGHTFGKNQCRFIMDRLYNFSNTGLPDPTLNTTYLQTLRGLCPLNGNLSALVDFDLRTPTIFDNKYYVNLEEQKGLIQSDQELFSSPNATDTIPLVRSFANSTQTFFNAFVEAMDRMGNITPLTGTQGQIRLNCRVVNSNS
# Biological target: preformed immune complex of peroxidase-rabbit anti-peroxidase IgG (PAP complex) (horseradish) (UniProt P00433)
# Assay: reverse ELISA; PAP IC pre-incubated with soluble human C1q, then on C1q-coated plate; residual OD, lower = more inhibition
substance,measurement,value
human C1q (Quidel Corp.) (from UniProt P02745 23-245; P02746 28-253; P02747 29-245),OD 405 nm,0.337 OD 405 nm
